Test results reported in patent US9119858B2, “Compositions and methods for treating or preventing anthracycline induced cardiotoxicity” (Genesys Research Institute, priority 2012, dated 2015).

Legend:
doxorubicin treated mice = experiment: Echocardiography of doxorubicin and doxorubicin+lapatinib treated mice; details: seven weeks after the completion of the doxorubicin treatment; FIG. 2; vs untreated controls
[1] = test system: doxorubicin+BEZ235 treated mice; assay type: in vivo; details: doxorubicin+BEZ235+lapatinib (25, 50 or 100 mg/kg oral daily) versus doxorubicin+BEZ235 treated mice; FIG. 5

| Structure (SMILES) | ejection fraction (EF %) (doxorubicin treated mice) | end-systolic volume (ESV) (doxorubicin treated mice) | survival [1] |
| --- | --- | --- | --- |
| COc1cccc2c1C(=O)c1c(O)c3c(c(O)c1C2=O)C[C@@](O)(C(=O)CO)C[C@@H]3O[C@H]1C[C@H](N)[C@H](O)[C@H](C)O1 [doxorubicin] | decreased | increased |  |
| CS(=O)(=O)CCNCc1ccc(-c2ccc3ncnc(Nc4ccc(OCc5cccc(F)c5)c(Cl)c4)c3c2)o1 [lapatinib, N-[3-chloro-4-[(3-fluorophenyl)methoxy]phenyl]-6-[5-[(2-methylsulfonylethylamino)methyl]-2-furyl]quinazolin-4-amine] |  |  | significantly improved |
